Literature values, collected in patent US5792622A, “Assay for chemicals” (priority 1995, dated 1998).

System: fish (trout fingerlings)
Conditions: Table 8, trout fingerlings; cited from earlier work

For Mercury, the “Fish LD50 (50% death of the fish)” value is given as 0.01-.9 ppm.
